# Assay results as given in patent publication US10894087B2, “Multi-arm polymeric prodrug conjugates of cabazitaxel-based compounds” (Nektar Therapeutics, priority 2010, dated 2021).
# Read-outs that look alike come from different tables or passages of the source.
# Tests used:
# [1] = Maximum tolerated dose (MTD) study of PEGylated conjugates of cabazitaxel in athymic mice; assay type: in vivo, female athymic nu/nu mice; details: qw x 3, iv; for Treatment-Related Deaths: N=5; for Estimated MTD, cabazitaxel equivalents: athymic nu/nu mice, guide value, not a definitive MTD
# Protocol: Purpose. This study was performed to determine appropriate doses of each compound for tumor xenograft studies. In those studies, it is desirable to administer the maximum dose of test compound that will not cause excessive loss of body weight. In general, loss of ˜15% of the initial body weight of the animal is typically the maximum desired.
# Experimental procedure. MTD for 4-arm-conjugated to cabazitaxel were determined in female athymic nu/nu mice using standard methods. Briefly, 8-12 week old mice were administered test compounds or cabazitaxel intravenously at one week intervals for a total of three doses per mouse (qw×3, iv) as shown in Tables 1 and 2. For all PEG-conjugated test compounds, the doses of both the conjugate and released cabazitaxel, calculated from the cabazitaxel content of the respective conjugate, are shown. […] PEG-cabazitaxel conjugates were prepared in D5W. […] Mice were observed daily for clinical signs and body weights were recorded on days 1-5 and then biweekly until the end of study. All procedures were conducted in compliance with IACUC requirements. Any individual animal with a single observation of greater than 30% body weight loss or three consecutive measurements of greater than 25% body weight loss was euthanized. For any group with two measurements of mean body weight loss of greater than 20%, dosing was stopped and recovery was allowed. Within a group with greater than 20% mean weight loss, individual animals greater than 30% body weight loss were euthanized. Compound dosing was terminated for any group in which mean weight loss exceeded 20% or >10% of animals died. Moribund animals were euthanized and all animals were euthanized at end of study (day 30).
# Results. The results for the study MTD “20K Conjugates” are summarized in Table 3 and FIG. 1 while the results for the MTD “30K and 40K Conjugates” study are summarized Table 4 and FIG. 2. […] It should be noted that this is not meant to be a definitive MTD, but is simply a guide to select an appropriate dose for conducting tumor xenograft studies using this administration route and schedule. Note too, that these MTD are given as cabazitaxel equivalents. The actual dose of each conjugate must be corrected for the wt % of cabazitaxel in that specific conjugate.
# [2] = test system: H460 non-small cell lung cancer (NSCLC) implants; details: for BW Nadir (Lowest Mean Body Weight for Group) / BW Nadir (d), day of nadir / Deaths: iv, qwk x 3; for Deaths: N=10
# Protocol: Purpose. Studies were conducted to assess the growth inhibitory effects of PEGylated-conjugates of cabazitaxel on H460 non-small cell lung cancer (NSCLC) implants in athymic nu/nu mice.
# Experimental plan. These studies were conducted using routine methods and materials that are familiar to those skilled in the art. Briefly, 8 to 12 week old female nu/nu mice were injected subcutaneously in the flank with 1×10^7 H460 tumor cells in 0.2 mL sterile buffer. […] Animals received three intravenous doses of test article at one week intervals beginning on day 1. Cabazitaxel solutions were prepared in D5W containing 5% Tween 80:10% ethanol. PEG-cabazitaxel conjugates were prepared in D5W. The administration volume for all test articles was 10 mL/kg. The test doses were selected to represent the MTD and ½ the MTD for each test compound. The tables list the actual mg/kg for each test article and the corresponding cabazitaxel equivalent calculated based on the weight-percent cabazitaxel content for each PEGylated conjugate.
# Animals were weighed on days 1-5, 7, 9, 11, 13 then biweekly until the end of the study. Tumor sizes were measured using calipers biweekly throughout the study and tumor volumes were calculated using the formula for an ellipsoid sphere: L×W^2/2=mm^3, where L and W are the major axis dimensions of the tumor in mm. Additional parameters that were monitored were the number of non-specific deaths, number of partial and complete tumor regressions, number of tumor-free survivors, and the time required for individual animals' tumors to reach 2000 mm^3. The median time for a tumor to reach 2000 mm^3 in the treatment groups (T) and control group (C) was used to calculate of the overall delay in the growth of the median tumor (TGD). Animals were monitored individually until reaching the experimental endpoint: tumor size of 2000 mm^3 or 45 days, whichever came first. […] When the study endpoint was reached, the animals were euthanized.
# [3] = MTD study 30K and 40K conjugates, 7.5 mg/kg cabazitaxel eq.
# [4] = MTD study 30K and 40K conjugates, 15 mg/kg cabazitaxel eq.
# [5] = MTD study 30K and 40K conjugates, 30 mg/kg cabazitaxel eq.
# [6] = 30K and 40K conjugate xenograft study, 6 mg/kg cabazitaxel eq.
# [7] = 30K and 40K conjugate xenograft study, 12 mg/kg cabazitaxel eq.
# [8] = 20K conjugate xenograft study, 12.5 mg/kg cabazitaxel eq.
# [9] = 20K conjugate xenograft study, 25 mg/kg cabazitaxel eq.
# [10] = MTD study 20K conjugates, 7.5 mg/kg cabazitaxel eq.
# [11] = MTD study 20K conjugates, 15 mg/kg cabazitaxel eq.
# [12] = MTD study 20K conjugates, 30 mg/kg cabazitaxel eq.
# [13] = 20K conjugate xenograft study, 10 mg/kg cabazitaxel eq.
# [14] = 20K conjugate xenograft study, 20 mg/kg cabazitaxel eq.
# [15] = 30K and 40K conjugate xenograft study, 10 mg/kg cabazitaxel eq.
# [16] = 30K and 40K conjugate xenograft study, 20 mg/kg cabazitaxel eq.
# [17] = 30K and 40K conjugate xenograft study, 15 mg/kg cabazitaxel eq.
# [18] = 30K and 40K conjugate xenograft study, 30 mg/kg cabazitaxel eq.
substance,measurement,setting,value
4-ARM-PEG30K-Alaninate-Linked Cabazitaxel Conjugate [4-arm-PEG30K-CM-alanine-Cabazitaxel],BW Nadir,[1]; [3],−2.7%
same,BW Nadir (day),[1]; [3],2 days
same,Treatment-Related Deaths,[1]; [3],0
same,BW Nadir,[1]; [4],−15.2%
same,BW Nadir (day),[1]; [4],21 days
same,Treatment-Related Deaths,[1]; [4],0
same,BW Nadir,[1]; [5],−30.9%
same,BW Nadir (day),[1]; [5],21 days
same,Treatment-Related Deaths,[1]; [5],0
same,"Estimated MTD, cabazitaxel equivalents",[1],30 mg/kg
same,BW Nadir (Lowest Mean Body Weight for Group),[2]; [6],−3.3%
same,"BW Nadir (d), day of nadir",[2]; [6],(18) d
same,Deaths,[2]; [6],0
same,BW Nadir (Lowest Mean Body Weight for Group),[2]; [7],−8.5%
same,"BW Nadir (d), day of nadir",[2]; [7],(22) d
same,Deaths,[2]; [7],0
4-ARM-PEG20K-Acetate-Linked Cabazitaxel [4-arm-PEG20K-CM-Cabazitaxel],BW Nadir (Lowest Mean Body Weight for Group),[2]; [8],−15.9%
same,"BW Nadir (d), day of nadir",[2]; [8],(22) d
same,BW Nadir (Lowest Mean Body Weight for Group),[2]; [9],−10.1%
same,"BW Nadir (d), day of nadir",[2]; [9],(22) d
4-ARM-PEG20K-Glycinate-Linked Cabazitaxel Conjugate [4-arm-PEG20K-CM-glycine-Cabazitaxel],BW Nadir,[1]; [10],−0.7%
same,BW Nadir (day),[1]; [10],3 days
same,Treatment-Related Deaths,[1]; [10],0
same,Treatment-Related Deaths,[1]; [11],0
same,BW Nadir,[1]; [12],−15.6%
same,BW Nadir (day),[1]; [12],23 days
same,Treatment-Related Deaths,[1]; [12],0
same,"Estimated MTD, cabazitaxel equivalents",[1],20 mg/kg
same,BW Nadir (Lowest Mean Body Weight for Group),[2]; [13],−9.2%
same,"BW Nadir (d), day of nadir",[2]; [13],(22) d
same,Deaths,[2]; [13],0
same,BW Nadir (Lowest Mean Body Weight for Group),[2]; [14],−9.5%
same,"BW Nadir (d), day of nadir",[2]; [14],(22) d
same,Deaths,[2]; [14],0
4-ARM-PEG20K-Butanoate-Linked Cabazitaxel Conjugate [4-arm-PEG20K-BA-Cabazitaxel],BW Nadir (Lowest Mean Body Weight for Group),[2]; [8],−4.3%
same,"BW Nadir (d), day of nadir",[2]; [8],(22) d
same,Weight loss (in words),"[2]; 20K conjugate xenograft study, 25 mg/kg",slightly higher than expected weight loss
same,BW Nadir (Lowest Mean Body Weight for Group),[2]; [9],−19.6%
same,"BW Nadir (d), day of nadir",[2]; [9],(22) d
4-ARM-PEG30K-Glycinate-Linked Cabazitaxel Conjugate [4-arm-PEG30K-CM-glycine-Cabazitaxel],BW Nadir,[1]; [3],−0.2%
same,BW Nadir (day),[1]; [3],2 days
same,Treatment-Related Deaths,[1]; [3],0
same,BW Nadir,[1]; [4],−3.7%
same,BW Nadir (day),[1]; [4],11 days
same,Treatment-Related Deaths,[1]; [4],0
same,BW Nadir,[1]; [5],−23.5%
same,BW Nadir (day),[1]; [5],24 days
same,Treatment-Related Deaths,[1]; [5],0
same,"Estimated MTD, cabazitaxel equivalents",[1],20 mg/kg
same,BW Nadir (Lowest Mean Body Weight for Group),[2]; [15],−5.9%
same,"BW Nadir (d), day of nadir",[2]; [15],(22) d
same,Deaths,[2]; [15],0
same,BW Nadir (Lowest Mean Body Weight for Group),[2]; [16],−9.8%
same,"BW Nadir (d), day of nadir",[2]; [16],(22) d
same,Deaths,[2]; [16],0
4-ARM-PEG20K-Alaninate-Linked Cabazitaxel Conjugate [4-arm-PEG20K-CM-alanine-Cabazitaxel],BW Nadir,[1]; [10],−4.6%
same,BW Nadir (day),[1]; [10],13 days
same,Mean Day of Death,[1]; [10],15
same,Treatment-Related Deaths,[1]; [10],1
same,BW Nadir,[1]; [11],−4.4%
same,BW Nadir (day),[1]; [11],3 days
same,Treatment-Related Deaths,[1]; [11],0
same,BW Nadir,[1]; [12],−22.1%
same,BW Nadir (day),[1]; [12],23 days
same,Treatment-Related Deaths,[1]; [12],0
same,"Estimated MTD, cabazitaxel equivalents",[1],20 mg/kg
same,BW Nadir (Lowest Mean Body Weight for Group),[2]; [13],−6.6%
same,"BW Nadir (d), day of nadir",[2]; [13],(22) d
same,Deaths,[2]; [13],0
same,BW Nadir (Lowest Mean Body Weight for Group),[2]; [14],−13.0%
same,"BW Nadir (d), day of nadir",[2]; [14],(17) d
same,Deaths,[2]; [14],0
4-ARM-PEG40K-Glycinate-Linked Cabazitaxel Conjugate [4-arm-PEG40K-CM-glycine-Cabazitaxel],BW Nadir,[1]; [3],−3.8%
same,BW Nadir (day),[1]; [3],2 days
same,Treatment-Related Deaths,[1]; [3],0
same,BW Nadir,[1]; [4],−6.7%
same,BW Nadir (day),[1]; [4],5 days
same,Treatment-Related Deaths,[1]; [4],0
same,BW Nadir,[1]; [5],−6.2%
same,BW Nadir (day),[1]; [5],21 days
same,Treatment-Related Deaths,[1]; [5],0
same,"Estimated MTD, cabazitaxel equivalents",[1],12 mg/kg
same,BW Nadir (Lowest Mean Body Weight for Group),[2]; [17],−6.4%
same,"BW Nadir (d), day of nadir",[2]; [17],(22) d
same,Deaths,[2]; [17],0
same,BW Nadir (Lowest Mean Body Weight for Group),[2]; [18],−15.3%
same,"BW Nadir (d), day of nadir",[2]; [18],(22) d
same,Deaths,[2]; [18],0
4-ARM-PEG40K-Alaninate-Linked Cabazitaxel Conjugate [4-arm-PEG40K-CM-alanine-Cabazitaxel],Treatment-Related Deaths,[1]; [3],0
same,BW Nadir,[1]; [4],−4.4%
same,BW Nadir (day),[1]; [4],21 days
same,Treatment-Related Deaths,[1]; [4],0
same,BW Nadir,[1]; [5],−25.9%
same,BW Nadir (day),[1]; [5],21 days
same,Mean Day of Death,[1]; [5],23
same,Treatment-Related Deaths,[1]; [5],1
same,"Estimated MTD, cabazitaxel equivalents",[1],20 mg/kg
same,BW Nadir (Lowest Mean Body Weight for Group),[2]; [15],−9.5%
same,"BW Nadir (d), day of nadir",[2]; [15],(25) d
same,Deaths,[2]; [15],0
same,BW Nadir (Lowest Mean Body Weight for Group),[2]; [16],−17.2%
same,"BW Nadir (d), day of nadir",[2]; [16],(18) d
same,Deaths,[2]; [16],0
